Reference: PubChem BioAssay AID1984 (Sanford-Burnham Center for Chemical Genomics, 2009)
The list shows a part of the results, in another mix than the full data. Active and inactive are the calls of the source.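 Rule for the calls: active = EGFP signal decrease of at least 30% at 10 µM or well 3 SD below plate mean, unless failing retest; inactive = the rest, including hits failing retest or dose response.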

Sequences of proteins named here, by UniProt entry; tags and fusion partners are left off. Residues count along the entry.
UniProt Q05BA5, 1-1403: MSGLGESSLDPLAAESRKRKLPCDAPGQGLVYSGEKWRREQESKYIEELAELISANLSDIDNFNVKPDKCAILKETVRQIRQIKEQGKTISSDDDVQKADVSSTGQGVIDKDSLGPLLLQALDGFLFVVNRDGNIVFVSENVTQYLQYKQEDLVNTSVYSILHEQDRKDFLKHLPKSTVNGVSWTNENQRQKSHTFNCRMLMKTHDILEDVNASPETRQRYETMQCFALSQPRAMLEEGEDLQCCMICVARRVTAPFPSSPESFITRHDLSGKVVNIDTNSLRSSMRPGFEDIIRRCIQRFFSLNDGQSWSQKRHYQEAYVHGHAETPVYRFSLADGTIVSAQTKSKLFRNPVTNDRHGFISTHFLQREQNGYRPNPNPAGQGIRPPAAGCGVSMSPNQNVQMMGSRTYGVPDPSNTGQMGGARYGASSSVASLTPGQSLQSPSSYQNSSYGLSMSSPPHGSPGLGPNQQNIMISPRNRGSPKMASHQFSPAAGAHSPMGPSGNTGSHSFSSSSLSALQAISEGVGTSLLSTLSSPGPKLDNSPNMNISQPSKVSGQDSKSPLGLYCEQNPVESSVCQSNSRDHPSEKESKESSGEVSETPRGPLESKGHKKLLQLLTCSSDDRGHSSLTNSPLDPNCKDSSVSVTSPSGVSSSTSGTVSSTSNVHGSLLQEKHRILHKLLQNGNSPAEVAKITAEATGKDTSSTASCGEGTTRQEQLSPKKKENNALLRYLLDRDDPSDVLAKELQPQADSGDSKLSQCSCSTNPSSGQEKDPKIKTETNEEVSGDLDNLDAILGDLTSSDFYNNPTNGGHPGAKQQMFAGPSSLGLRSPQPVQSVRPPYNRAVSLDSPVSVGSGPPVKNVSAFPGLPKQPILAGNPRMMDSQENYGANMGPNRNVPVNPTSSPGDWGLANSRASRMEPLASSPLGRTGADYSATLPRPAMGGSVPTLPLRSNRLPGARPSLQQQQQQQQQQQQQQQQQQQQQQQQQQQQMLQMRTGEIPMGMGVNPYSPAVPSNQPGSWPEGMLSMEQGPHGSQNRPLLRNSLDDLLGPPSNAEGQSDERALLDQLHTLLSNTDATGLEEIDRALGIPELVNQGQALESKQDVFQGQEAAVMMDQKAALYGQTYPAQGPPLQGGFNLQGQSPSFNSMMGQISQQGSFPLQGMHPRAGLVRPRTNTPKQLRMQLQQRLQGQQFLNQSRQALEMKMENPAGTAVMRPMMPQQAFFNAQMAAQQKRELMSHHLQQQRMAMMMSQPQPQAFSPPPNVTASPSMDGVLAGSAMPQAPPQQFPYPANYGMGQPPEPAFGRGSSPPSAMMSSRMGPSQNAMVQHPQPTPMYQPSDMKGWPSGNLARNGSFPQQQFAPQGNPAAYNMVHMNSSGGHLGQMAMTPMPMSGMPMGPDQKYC

Target: p/CIP-EGFP fusion (nuclear receptor coactivator 3, mouse) (UniProt Q05BA5)
Assay: compounds lowering mouse p/CIP (NCOA3) protein levels – fluorescence, F442A cells, EGFP fusion, primary screen (AID 1984)
Settings: 16 h, at 10 µM, hits give high values

Compound	decrease of EGFP signal
Cc1cc(C)cc(N(C(=O)c2ccccc2)C2CCN(C(=O)OC(C)(C)C)CC2)c1	inactive: -7.6%
O=C(NCC1(N2CCOCC2)CCCCC1)c1cc2ccccc2o1	inactive: -4.7%
O=C(OC1CN2CCC1CC2)C1c2ccccc2Oc2ccccc21 (centres undefined)	inactive: -4.3%
N#CC1(Nc2ccccc2)CCN(Cc2ccccc2)CC1	inactive: -10%
CCOC(=O)N1CCC(Nc2ccc(OC)cc2)CC1	inactive: -12.7%
CC(C)(C)OC(=O)N1CCC(N(C(=O)c2ccccc2)c2ccc(F)cc2)CC1	inactive: 2.5%
COc1ccc(C(=O)NCC2(N3CCCCC3)CCCCC2)c(OC)c1OC	inactive: -7.1%
COc1ccc(C(=O)NCC2(N3CCCCC3)CCCCC2)cc1	inactive: -4.3%
O=C(NCC1(N2CCCCC2)CCCCC1)c1ccc(=O)[nH]c1	inactive: 13.7%
CSc1ccccc1C(=O)NCC1(N2CCCCC2)CCCCC1	inactive: -13.5%
Cc1ccc(OCC(C)C)c(CN(CCCl)CCCl)c1	inactive: -13%
COc1cc(C(=O)NCC2(N(C)C)CCCCC2)ccc1OC(F)F	inactive: 6%
CCOC(=O)N1CCC(Nc2cccc(C)c2)CC1	inactive: -10.1%
CCOc1ccc(C)cc1CN(CCCl)CCCl	inactive: -14.5%
CCOC(=O)N1CCC(Nc2ccc(F)cc2)CC1	inactive: -4.6%
COc1ccc(NC2CCN(CCc3ccccc3)CC2)c(OC)c1	inactive: -15.8%
O=C(NCC1(N2CCCCC2)CCCCC1)c1ccc(F)cc1	inactive: -6.3%
O=C(NCC1(N2CCCCC2)CCCCC1)c1cccc(C(F)(F)F)c1	inactive: -2%
O=C(NCC1(N2CCOCC2)CCCCC1)c1cc(=O)[nH]c2ccccc12	inactive: -0.7%
COc1cc(C(=O)NCC2(N3CCCCC3)CCCCC2)ccc1OC(F)F	inactive: -2.3%
COc1ccc(NC2CCN(C(=O)OC(C)(C)C)CC2)cc1	inactive: -13.8%
CN1CCN(CCOC(=O)C(O)(c2ccccc2)c2ccccc2)CC1	inactive: -4.1%
O=C(NCC1(N2CCCCC2)CCCCC1)c1ccc(OC(F)F)cc1	inactive: -10.1%
N#CC1(Nc2ccccc2)CCN(CCc2ccccc2)CC1	inactive: -5.3%
CCN1CCC(Nc2ccc(Cl)cc2)CC1	inactive: -10.4%
O=C(NCC1(N2CCCCC2)CCCCC1)c1cccc([N+](=O)[O-])c1	inactive: -0.8%
CCCOc1ccc(C(=O)NCC2(N(C)C)CCCCC2)cc1OC	inactive: -0.6%

Compound	decrease of EGFP signal
CC(C)c1ccc(NC2CCN(C(=O)OC(C)(C)C)CC2)cc1	inactive: -8.5%
CN(C)c1cccc(C(=O)NCC2(N3CCCCC3)CCCCC2)c1	inactive: -3.9%
COc1ccc(CN(CCCl)CCCl)cc1Cl	inactive: -5.3%
COc1cc(OC)c(C(=O)NCC2(N(C)C)CCCCC2)cc1OC	inactive: 15.9%
CCOC(=O)N1CCC(Nc2ccc(C)cc2)CC1	inactive: 2.3%
N/C(=N\O)c1c(N)no[n+]1[O-]	inactive: -1.7%
O=C(OC1CN2CCC1CC2)C1c2ccccc2C=Cc2ccccc21 (centres undefined)	inactive: -2.2%
COc1ccc(C(=O)NCC2(N3CCOCC3)CCCCC2)cc1OC	inactive: -9.7%
CN(C)C1(CNC(=O)c2cccc(C#N)c2)CCCCC1	inactive: -5.1%
CCCN1CCC(Nc2cc(OC)cc(OC)c2)CC1	inactive: -7.8%
c1ccc(CN2CCC(Nc3ccccc3)CC2)cc1	inactive: -6.4%
N#Cc1ccc(C(=O)NCC2(N3CCCCC3)CCCCC2)cc1	inactive: 9.3%
CC(C)(C)OC(=O)N1CCC(N(C(=O)c2ccccc2)c2ccc(Cl)cc2)CC1	inactive: 5.2%
CCN1CCC(Nc2cccc(F)c2)CC1	inactive: 3.1%
CN(C)c1ccc(C(=O)NCC2(N3CCCCC3)CCCCC2)cc1	inactive: 5.4%
COc1cc(OC)cc(C(=O)NCC2(N3CCCCC3)CCCCC2)c1	inactive: -19.4%
Fc1ccccc1NC1CCN(Cc2ccccc2)CC1	inactive: 0.9%
COc1cccc(C(=O)N(c2cc(C)cc(C)c2)C2CCN(C(=O)OC(C)(C)C)CC2)c1	inactive: -5.3%
COc1cc(OC)cc(C(=O)NCC2(N3CCOCC3)CCCCC2)c1	inactive: -1.4%
CCC(CO)(C(=O)OC1CN2CCC1CC2)c1ccccc1 (centres undefined)	inactive: -3.9%
CN1CCC(Nc2ccc(Cl)cc2)CC1	inactive: -3%
CCCOc1ccc(C)cc1CN(CCCl)CCCl	inactive: -2.3%
CN1CCC(Nc2ccc(F)c(Cl)c2)CC1	inactive: 10.9%
CCOc1ncccc1C(=O)NCC1(N2CCOCC2)CCCCC1	inactive: -3.3%
O=C(O)C1(Nc2ccccc2)CCN(Cc2ccccc2)CC1	inactive: 1.6%
CC(C)(C)OC(=O)N1CCC(Nc2ccccc2)CC1	inactive: -6.8%
CCCOc1ccc(C(=O)NCC2(N(C)C)CCCCC2)cc1	inactive: 0.4%
